# scFv variants of Ab-91 (heavy chain) against a SARS-CoV-2 spike peptide

The target is the same throughout: PDVDLGDISGINAS, from the HR2 region of SARS-CoV-2 spike.

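Phage display of a naive human antibody library on the peptide gave the parent. In library AAYL51, one, two or three CDR residues were substituted; doubles and triples were drawn at random. The assay is AlphaSeq: two haploid yeast populations carry antibody and antigen on their surface. After mating in shaken culture at 30 °C for 16 h, diploids were selected and their barcode pairs sequenced. Read counts were normalised to the haploid input and turned into Kd by a linear fit to BCL2-family pairs of known affinity, for each replicate. Each pool was mated in three replicate cultures.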

The variants keep the light chain, the linker and the frameworks of Ab-91 (scFv order VL, a (GGGGS)3 linker, VH).
VL: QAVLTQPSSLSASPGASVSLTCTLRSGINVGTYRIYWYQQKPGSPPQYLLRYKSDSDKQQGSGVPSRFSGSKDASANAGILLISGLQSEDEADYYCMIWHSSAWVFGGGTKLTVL
VH: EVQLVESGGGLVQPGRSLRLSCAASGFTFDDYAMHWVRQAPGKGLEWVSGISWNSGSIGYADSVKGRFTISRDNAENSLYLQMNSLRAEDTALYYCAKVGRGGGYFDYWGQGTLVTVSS

Variants are written as CDR1, CDR2 and CDR3 of the heavy chain (limits as in the source). Parent: GFTFDDYAMH, GISWNSGSIGYADSVK, VGRGGGYFDY.
All variants listed here change G26 of the VH, counted from its first residue.
Values are log10 of the apparent Kd in nM; lower means stronger binding.
A mean of the replicates is given; it leaves out those without a signal.
"nd" means that the variant was in the library but no mating with the target was seen in any replicate; the authors take this as a sign of poor binding, and no number exists.
In this assay the parent's reference entry averaged 1.86; its copy inside this library read 0.88.
Empty control strains, which show no peptide, gave a signal in 21% of pairings with library AAYL51; the median was 4.54 and 95% of these signals were weaker than 3.26. No background was subtracted. The control count says in how many pairings with the empty strains this scFv gave a signal.

With CFTFDDYAMH / GISWNSGSIGYADSVK / VGRGGGYFDV the result was 3.19 (3 of 3 replicates; controls 4 of 9). Variant TFTFDDYAMH / GISWRSGSIGYADSVK / VGRGGGYFDY showed 3.86 (1 of 3 replicates; controls 0 of 9). For PFTFDDYAMH / GISWNSGSIGYADSVK / VGRGGGYFDY, the assay gave 5.66 (1 of 3 replicates; controls 3 of 9). Variant DFTFDDYAMH / GISWNSGSIGYADSVK / VGRGGLMFDY showed 4.87 (3 of 3 replicates; controls 6 of 9). Variant SSTFDDYAMH / GISWNEGSIGYADSVK / VGRGGGYFDY showed 5.29 (1 of 3 replicates; controls 1 of 9).

Variant QFTFDDYAMH / GISWNSDSIGYADSVK / PGRGGGYFDY showed 4.52 (1 of 3 replicates; controls 3 of 9). Variant VFTFDDYACH / GISWNSGSIGYADSVK / VGRGGGYNDY gave nd (0 of 3 replicates; controls 0 of 9). Variant LFTFDDYAMW / GISWNSGSIGYADSVK / VGRGGCYFDY gave 4.74 (2 of 3 replicates; controls 3 of 9). For LFTFDDYAMH / GISWNSGSCGYADVVK / VGRGGGYFDY, the assay gave nd (0 of 3 replicates; controls 0 of 9). With MYTFDDYANH / GISWNSGSIGYADSVK / VGRGGGYFDY the result was 2.88 (1 of 3 replicates; controls 1 of 9).

For QFTFGDYAMH / GISWNSGSIVYADSVK / VGRGGGYFDY, the assay gave nd (0 of 3 replicates; controls 2 of 9). Variant EFTFDDYASH / GISMNSGSIGYADSVK / VGRGGGYFDY gave nd (0 of 3 replicates; controls 2 of 9). With CFTFDDYAMH / GISWNSGSIGYAQSVK / VGRGGGYFDY the result was 4.70 (1 of 3 replicates; controls 0 of 9). Variant SFTFDDYAMH / GISWNSGSIGYADSVK / VGREGRYFDY showed nd (0 of 3 replicates; controls 0 of 9). Variant VFTFDDYAPH / GISWNSGSIGYADSVK / VGRGGGCFDY showed 5.73 (2 of 3 replicates; controls 4 of 9).

For IFTFDHYAMH / KISWNSGSIGYADSVK / VGRGGGYFDY, the assay gave nd (0 of 3 replicates; controls 0 of 9). Variant FFTFDDYAMH / GISWNSGSIGYADSVK / VGRAGGGFDY showed nd (0 of 3 replicates; controls 1 of 9). For SITFDDYAMH / GISWNSGSIKYADSVK / VGRGGGYFDY, the assay gave 3.95 (2 of 3 replicates; controls 2 of 9). With LFTFDDYPMH / GMSWNSGSIGYADSVK / VGRGGGYFDY the result was 1.25 (3 of 3 replicates; controls 1 of 9). For VFTFDDYCMH / GISWNRGSIGYADSVK / VGRGGGYFDY, the assay gave 3.07 (3 of 3 replicates; controls 0 of 9).

Variant MLHFDDYAMH / GISWNSGSIGYADSVK / VGRGGGYFDY gave 1.16 (3 of 3 replicates; controls 3 of 9). Variant VFTFDDYAMH / GISWNSGSIGYADSVK / VGRGGGYIDY gave 4.05 (1 of 3 replicates; controls 1 of 9). For LFTFDDYAMH / GISWNSGHIGYADSVK / VGRGGGYFDY, the assay gave nd (0 of 3 replicates; controls 0 of 9). Variant IFTFDIYAMH / GASWNSGSIGYADSVK / VGRGGGYFDY showed nd (0 of 3 replicates; controls 0 of 9). Variant IFTFDEEAMH / GISWNSGSIGYADSVK / VGRGGGYFDY showed nd (0 of 3 replicates; controls 1 of 9).

With QFTFDDYAMH / GISWNSGRIGYADSVS / VGRGGGYFDY the result was 6.11 (1 of 3 replicates; controls 4 of 9). With MFTFDDYAWH / GISWNSGSIGYADSVK / VMRGGGYFDY the result was 4.23 (2 of 3 replicates; controls 0 of 9). Variant CFTADDYAMH / GISWNSGSIGYADSVK / VERGGGYFDY showed 5.66 (1 of 3 replicates; controls 3 of 9). Variant KFTFDDYAMH / GISWNSGSIGYADSVK / HGRGGRYFDY showed 4.91 (3 of 3 replicates; controls 7 of 9). For LFTFGDYAMI / GISWNSGSIGYADSVK / VGRGGGYFDY, the assay gave 5.32 (1 of 3 replicates; controls 3 of 9).

Variant RFTFDDYAMH / GISWNSGSIGYADSVE / VGRGGSYFDY gave 1.17 (3 of 3 replicates; controls 3 of 9). For VFIFRDYAMH / GISWNSGSIGYADSVK / VGRGGGYFDY, the assay gave nd (0 of 3 replicates; controls 1 of 9). For KFTFDDYAMH / GISWNSGSIGYADSVK / VGRGYGYFDI, the assay gave nd (0 of 3 replicates; controls 0 of 9). For SFTFDDYAMH / GWSWNSGSIGYADSVK / VGRNGGYFDY, the assay gave 4.21 (1 of 3 replicates; controls 3 of 9). Variant SFTFDDYAMH / GISWNSGSIGHADSVK / VGRGGGYFDY gave nd (0 of 3 replicates; controls 2 of 9).

Variant IFTFDDYAMH / GISWNSGSQGYYDSVK / VGRGGGYFDY gave 4.88 (2 of 3 replicates; controls 4 of 9). Variant MFTFDDYAMH / GISWNLGSIGYLDSVK / VGRGGGYFDY gave 3.85 (1 of 3 replicates; controls 0 of 9).

The measurements come from Engelhart et al. 2022 (doi:10.1038/s41597-022-01779-4) through the FLAb antibody collection.